In test [1] the target is Amine oxidase [flavin-containing] B (Rattus norvegicus, UniProt P19643). The test can be described thus: In vitro inhibitory activity against rat brain Monoamine oxidase B.
Test [2] concerns the target Amine oxidase [flavin-containing] A (Rattus norvegicus, UniProt P21396). The test can be described thus: In vitro inhibitory activity against rat brain Monoamine oxidase A.

By UniProt entry, the sequences of proteins in these tests, tags left out.
UniProt P19643, whole entry: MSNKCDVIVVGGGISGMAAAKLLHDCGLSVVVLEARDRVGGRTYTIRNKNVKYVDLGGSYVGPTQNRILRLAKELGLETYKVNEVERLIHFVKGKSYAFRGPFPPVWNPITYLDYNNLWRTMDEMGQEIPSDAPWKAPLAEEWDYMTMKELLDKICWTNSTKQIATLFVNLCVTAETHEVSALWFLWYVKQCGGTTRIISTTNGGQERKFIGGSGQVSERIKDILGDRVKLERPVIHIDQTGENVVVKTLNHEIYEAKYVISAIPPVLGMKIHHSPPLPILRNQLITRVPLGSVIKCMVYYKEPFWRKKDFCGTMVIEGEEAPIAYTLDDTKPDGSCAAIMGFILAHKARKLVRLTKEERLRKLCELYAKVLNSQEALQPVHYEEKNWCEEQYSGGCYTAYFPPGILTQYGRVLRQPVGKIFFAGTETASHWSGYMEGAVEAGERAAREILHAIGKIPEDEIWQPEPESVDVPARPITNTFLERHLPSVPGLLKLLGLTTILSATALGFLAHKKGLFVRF
UniProt P21396, whole entry: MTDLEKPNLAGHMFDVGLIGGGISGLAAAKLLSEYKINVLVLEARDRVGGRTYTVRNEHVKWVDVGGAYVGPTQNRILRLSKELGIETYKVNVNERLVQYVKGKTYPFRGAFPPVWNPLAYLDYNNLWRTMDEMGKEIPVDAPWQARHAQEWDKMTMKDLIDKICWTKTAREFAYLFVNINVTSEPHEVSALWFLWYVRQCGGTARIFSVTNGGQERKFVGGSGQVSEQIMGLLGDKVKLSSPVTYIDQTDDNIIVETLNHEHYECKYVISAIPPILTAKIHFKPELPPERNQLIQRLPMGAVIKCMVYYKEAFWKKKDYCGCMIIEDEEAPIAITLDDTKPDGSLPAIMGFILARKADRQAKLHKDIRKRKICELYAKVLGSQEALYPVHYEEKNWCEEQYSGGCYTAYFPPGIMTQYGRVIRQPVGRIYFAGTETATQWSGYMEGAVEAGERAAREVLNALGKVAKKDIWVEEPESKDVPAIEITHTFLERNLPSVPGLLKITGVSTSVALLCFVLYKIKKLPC

SMILES strings stand for the structures. A value given as a limit tells only on which side of the number the result lay.

For the compound `NCCNC(=O)c1ccc(Cl)cn1` [LAZABEMIDE], the half-inhibitory concentration (IC50) in test [1] was 0.03 µM; in test [2], greater than 10 µM.

The IC50 is the concentration that gives 50% inhibition. Low values mean higher potency, high ones lower potency.
